Marks after values point to notes of the source that are not given here.

Chains of the proteins cited; added tags and fusions are not shown. Residues count along the entry.
UniProt P53350, 21-346 limits assumed: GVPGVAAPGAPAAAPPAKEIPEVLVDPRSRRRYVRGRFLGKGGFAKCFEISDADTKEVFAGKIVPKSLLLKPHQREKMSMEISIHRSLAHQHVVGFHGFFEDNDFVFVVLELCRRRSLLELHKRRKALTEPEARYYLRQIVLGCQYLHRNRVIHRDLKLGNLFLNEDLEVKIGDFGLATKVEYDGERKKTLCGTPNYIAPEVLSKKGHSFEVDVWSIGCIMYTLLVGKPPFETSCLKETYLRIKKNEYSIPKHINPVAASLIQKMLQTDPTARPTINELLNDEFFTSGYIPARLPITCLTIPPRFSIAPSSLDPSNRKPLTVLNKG

For orientation: IC50 means the concentration needed to halve the response being measured.

Data set [1] has as its system A549. Description: Methylene Blue Cell Growth Inhibition Assay, A549. To be noted: read-out: MEB A549 IC50, 72 h.
Data set [2] is described as follows: Intravenous pharmacokinetics in CD-1 mouse. To be noted: iv bolus, male CD-1 mouse; for Plasma CL: dose 1.9-7.4 mg/kg per compound (Table 3).
Data set [3] has as its system H460. Description: Methylene Blue Cell Growth Inhibition Assay, H460. The note with it: read-out: MEB H460 IC50, 72 h.
For data set [4], the system named is RKO. Kind of data set: Methylene Blue Cell Growth Inhibition Assay, RKO. The note with it: read-out: MEB RKO IC50, 72 h.
Data set [5] has as its target PLK1 kinase domain (Homo sapiens, UniProt P53350). Description: Assay for Inhibition of PLK1 (33P SPA kinase assay). Format: biochemical. To be noted: 2 nM PLK1 kinase domain, 1 μM ATP.
Data set [6] relates to HCT116. Kind of data set: Methylene Blue Cell Growth Inhibition Assay, HCT116. The note with it: read-out: MEB HCT116 IC50, 72 h.
In data set [7] the test system is MCF7. Kind of data set: Methylene Blue Cell Growth Inhibition Assay, MCF7. To be noted: read-out: MEB MCF7 IC50, 72 h.
Data set [8] relates to Normal human foreskin fibroblasts (HFF). Description: Methylene Blue Cell Growth Inhibition Assay, HFF. To be noted: read-out: MEB HFF IC50, 72 h.
Data set [9] deals with H1299. Kind of data set: Cell-Titer Glo Cell Growth Inhibition Assay, H1299. The note with it: read-out: CTG H1299 IC50, CellTiter-Glo, 72 h.
Data set [10] relates to MX-1. Description: Cell-Titer Glo Cell Growth Inhibition Assay, MX-1. To be noted: read-out: CTG MX-1 IC50, CellTiter-Glo, 72 h.
Data set [11] deals with SKOV3. Description: Cell-Titer Glo Cell Growth Inhibition Assay, SKOV-3. The note with it: read-out: CTG SKOV-3 IC50, CellTiter-Glo, 72 h. For orientation: ATP-based viability assays read luminescence as a measure of living cells.
Data set [12] deals with MDA-MB468. Kind of data set: Cell-Titer Glo Cell Growth Inhibition Assay, MDA-MB468. To be noted: read-out: CTG MDA-MB468 IC50, CellTiter-Glo, 72 h.
The subject of data set [13] is Hela. Kind of data set: Cell-Titer Glo Cell Growth Inhibition Assay, Hela. The note with it: read-out: CTG Hela IC50, CellTiter-Glo, 72 h.
Data set [14] concerns A549-L. Kind of data set: Cell-Titer Glo Cell Growth Inhibition Assay, A549-L. The note with it: read-out: CTG A549-L IC50, CellTiter-Glo, 72 h.
The subject of data set [15] is HCT-116. Description: Cell-Titer Glo Cell Growth Inhibition Assay, HCT116. To be noted: read-out: CTG HCT116 IC50, CellTiter-Glo, 72 h.
Data set [16] deals with HT29. Description: Cell-Titer Glo Cell Growth Inhibition Assay, HT29. The note with it: read-out: CTG HT29 IC50, CellTiter-Glo, 72 h.
In data set [17] the test system is MCF7. Kind of data set: Cell-Titer Glo Cell Growth Inhibition Assay, MCF7. To be noted: read-out: CTG MCF7 IC50, CellTiter-Glo, 72 h.
Data set [18] relates to MX-1. Kind of data set: Methylene Blue Cell Growth Inhibition Assay, MX-1. To be noted: read-out: MEB MX-1 IC50, 72 h.
The subject of data set [19] is Colo 205. Kind of data set: Cell-Titer Glo Cell Growth Inhibition Assay, COLO205. The note with it: read-out: CTG COLO205 IC50, CellTiter-Glo, 72 h.

Turning to `COc1cc2ncn(-c3cc(O[C@H](C)c4ccccc4C(F)(F)F)c(C(N)=O)s3)c2cc1OC`, the IC50 in data set [1], in data set [3], in [4], in data set [6] and in data set [7] was less than 100 nM in each case. For the same compound, the “AUC (0-t), 0-1 h” value in data set [2] (2.5 mg/kg, 0-1 h) is listed as 400** ng * h/mL. The “Plasma CL” value in [2] was 98.6 mL/min/kg. Also, the “PLK1 pIC50” value in [5] is “+++ (pIC50>8)”.
With `COc1cc2ncn(-c3cc(O[C@@H](C)c4ccccc4Cl)c(C(N)=O)s3)c2cc1OC`, the IC50 in data set [8], in [1], in data set [3], in [4], in data set [6] and in data set [7] was more than 1000 nM throughout.
`COc1cc2ncn(-c3cc(O[C@H](C)c4ccccc4Cl)c(C(N)=O)s3)c2cc1OC`: the IC50 was 100 to 1000 nM in [8]; less than 100 nM in [9]; less than 100 nM in data set [1]; less than 100 nM in [10]; less than 100 nM in [11]; less than 100 nM in data set [3]. Further, the IC50 in data set [12], in data set [4], in [13], in data set [14], in data set [6] and in [15] was less than 100 nM in each case. Also, the IC50 in data set [16], in data set [7], in data set [17], in data set [18] and in data set [19] was less than 100 nM each time. Moreover, the “AUC (0-t), 0-4 h” value in data set [2] (4 mg/kg, 0-4 h) is on record as 730* ng * h/mL. The “Plasma CL” value in data set [2] stood at 90.85 mL/min/kg.

(Values after patent publication US20080214563A1, “Benzimidazole Thiophene Compounds As Plk Modulators” (priority 2005, published 2008).)
